Data: PubChem BioAssay AID489033 (Sanford-Burnham Center for Chemical Genomics, 2010)
Calls of active or inactive are those of the source. How the calls were made is not given here.

Tested on: 697B B-cell line, NF-kB luciferase reporter luminescence
Assay: inhibitors of B-cell NF-kB luciferase signal – 697B cells, luminescence, selectivity assay for T-cell antigen receptor NF-kB inhibitors, dose response (AID 489033)

SMILES	IC50
CC[n+]1c(/C=C/N(C)c2ccccc2)oc2ccccc21	inactive: > 80 µM
Cc1ccnc2c1ccc1cccnc12	19.3 µM
O=c1c2ccccc2nc(/C=C/c2ccc([N+](=O)[O-])o2)n1-c1ccc(O)cc1	2.8 µM
